Consider 1 compound from patent publication US9532970B2, “Compositions for anti-inflammatory, antioxidant effects and improved respiratory function by specific histone deacetylase inhibition” (priority 2014, dated 2017).

Amino acid sequences for entries named in this document (tags omitted).
UniProt Q13547, whole entry, species assumed: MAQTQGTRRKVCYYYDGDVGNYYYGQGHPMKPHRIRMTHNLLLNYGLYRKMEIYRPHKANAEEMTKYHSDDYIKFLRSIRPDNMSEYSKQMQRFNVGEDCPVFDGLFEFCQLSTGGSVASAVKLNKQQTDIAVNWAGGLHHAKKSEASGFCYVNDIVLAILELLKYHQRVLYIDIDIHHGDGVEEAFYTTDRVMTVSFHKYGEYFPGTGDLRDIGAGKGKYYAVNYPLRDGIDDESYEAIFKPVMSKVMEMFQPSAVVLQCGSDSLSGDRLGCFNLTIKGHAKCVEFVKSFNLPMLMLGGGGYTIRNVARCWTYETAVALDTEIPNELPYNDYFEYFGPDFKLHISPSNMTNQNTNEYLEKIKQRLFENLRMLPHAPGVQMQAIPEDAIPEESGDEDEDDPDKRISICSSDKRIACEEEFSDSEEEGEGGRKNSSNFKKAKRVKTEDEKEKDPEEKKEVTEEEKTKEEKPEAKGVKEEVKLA
UniProt Q9BY41, whole entry, species assumed: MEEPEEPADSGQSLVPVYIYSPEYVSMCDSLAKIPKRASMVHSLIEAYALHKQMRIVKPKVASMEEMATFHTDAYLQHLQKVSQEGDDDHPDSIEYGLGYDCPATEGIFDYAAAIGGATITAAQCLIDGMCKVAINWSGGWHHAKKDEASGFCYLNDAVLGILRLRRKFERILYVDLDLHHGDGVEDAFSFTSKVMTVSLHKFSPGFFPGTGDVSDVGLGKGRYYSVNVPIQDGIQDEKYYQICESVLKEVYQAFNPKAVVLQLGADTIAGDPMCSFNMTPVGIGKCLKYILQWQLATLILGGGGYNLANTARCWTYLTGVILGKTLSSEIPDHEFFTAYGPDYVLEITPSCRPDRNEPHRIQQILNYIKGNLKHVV
UniProt Q92769, whole entry, species assumed: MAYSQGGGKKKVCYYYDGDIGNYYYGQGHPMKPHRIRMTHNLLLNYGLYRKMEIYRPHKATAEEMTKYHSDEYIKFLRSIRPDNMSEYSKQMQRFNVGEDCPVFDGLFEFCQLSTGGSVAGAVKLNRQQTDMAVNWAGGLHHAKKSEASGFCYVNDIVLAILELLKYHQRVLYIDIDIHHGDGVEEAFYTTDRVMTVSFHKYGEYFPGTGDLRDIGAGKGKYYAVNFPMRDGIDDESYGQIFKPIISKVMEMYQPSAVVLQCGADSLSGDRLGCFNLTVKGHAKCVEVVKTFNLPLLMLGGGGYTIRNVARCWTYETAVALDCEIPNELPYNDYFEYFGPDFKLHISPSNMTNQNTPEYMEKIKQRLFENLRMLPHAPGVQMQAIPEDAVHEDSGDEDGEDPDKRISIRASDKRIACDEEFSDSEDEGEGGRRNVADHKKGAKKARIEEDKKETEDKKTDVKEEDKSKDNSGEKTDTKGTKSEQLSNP
UniProt P56524, whole entry, species assumed: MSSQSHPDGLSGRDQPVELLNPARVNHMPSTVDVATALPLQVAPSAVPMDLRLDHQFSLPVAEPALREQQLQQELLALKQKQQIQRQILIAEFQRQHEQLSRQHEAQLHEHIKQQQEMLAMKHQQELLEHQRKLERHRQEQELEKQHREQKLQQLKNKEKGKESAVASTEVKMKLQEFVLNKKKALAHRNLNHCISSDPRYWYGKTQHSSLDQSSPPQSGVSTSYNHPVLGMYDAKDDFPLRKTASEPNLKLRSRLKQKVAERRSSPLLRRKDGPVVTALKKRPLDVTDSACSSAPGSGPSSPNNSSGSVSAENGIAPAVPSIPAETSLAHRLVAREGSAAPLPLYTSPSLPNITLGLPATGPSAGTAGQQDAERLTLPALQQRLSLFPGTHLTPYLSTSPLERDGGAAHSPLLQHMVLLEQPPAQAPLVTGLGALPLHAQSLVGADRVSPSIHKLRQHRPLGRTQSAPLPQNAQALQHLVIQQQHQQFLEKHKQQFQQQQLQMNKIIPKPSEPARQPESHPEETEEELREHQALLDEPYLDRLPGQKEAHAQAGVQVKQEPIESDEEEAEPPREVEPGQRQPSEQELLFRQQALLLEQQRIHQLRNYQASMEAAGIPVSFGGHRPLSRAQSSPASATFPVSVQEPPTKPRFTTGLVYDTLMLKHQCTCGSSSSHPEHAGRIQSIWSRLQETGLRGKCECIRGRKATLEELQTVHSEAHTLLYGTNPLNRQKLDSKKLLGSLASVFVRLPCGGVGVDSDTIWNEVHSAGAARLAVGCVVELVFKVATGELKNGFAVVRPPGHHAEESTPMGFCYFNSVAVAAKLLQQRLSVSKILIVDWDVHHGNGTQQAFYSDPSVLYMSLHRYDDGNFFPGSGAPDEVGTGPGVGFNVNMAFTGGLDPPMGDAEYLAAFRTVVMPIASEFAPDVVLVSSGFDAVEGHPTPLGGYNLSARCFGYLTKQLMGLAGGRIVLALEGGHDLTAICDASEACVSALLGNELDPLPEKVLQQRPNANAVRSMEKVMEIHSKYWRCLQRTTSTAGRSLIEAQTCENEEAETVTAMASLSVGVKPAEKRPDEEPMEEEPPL

Some targets named below: HDAC-1 (Homo sapiens, UniProt Q13547); HDAC8 (Homo sapiens, UniProt Q9BY41); HDAC-2 (Homo sapiens, UniProt Q92769).
Another experiment deals with HDAC-4 (Homo sapiens, UniProt P56524). The experiment can be described thus: Binding to metal dependent histone deacetylase enzymes (epigenetic assay services).
In the next experiment the target is T1, HDAC-10 (Homo sapiens, UniProt Q969S8).
T1 sequence (Q969S8 1-669): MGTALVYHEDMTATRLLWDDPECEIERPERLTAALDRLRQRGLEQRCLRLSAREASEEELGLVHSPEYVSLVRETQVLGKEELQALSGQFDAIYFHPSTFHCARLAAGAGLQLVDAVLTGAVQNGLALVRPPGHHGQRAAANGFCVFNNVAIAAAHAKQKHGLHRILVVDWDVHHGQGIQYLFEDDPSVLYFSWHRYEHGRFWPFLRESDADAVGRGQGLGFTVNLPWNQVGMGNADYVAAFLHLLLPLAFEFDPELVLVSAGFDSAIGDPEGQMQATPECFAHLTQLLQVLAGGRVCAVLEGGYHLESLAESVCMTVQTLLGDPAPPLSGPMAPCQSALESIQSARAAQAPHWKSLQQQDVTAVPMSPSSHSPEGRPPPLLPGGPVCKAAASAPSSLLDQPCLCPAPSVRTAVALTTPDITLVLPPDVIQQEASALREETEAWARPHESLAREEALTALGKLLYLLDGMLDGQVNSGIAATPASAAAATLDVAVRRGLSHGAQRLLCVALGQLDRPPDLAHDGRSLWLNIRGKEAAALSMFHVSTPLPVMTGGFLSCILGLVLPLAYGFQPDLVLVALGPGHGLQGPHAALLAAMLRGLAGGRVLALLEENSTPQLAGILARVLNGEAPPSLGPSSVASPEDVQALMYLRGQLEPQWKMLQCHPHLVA
Described as above.

The target in the next experiment is T2, HDAC-11 (Homo sapiens, UniProt Q96DB2).
T2 sequence (Q96DB2 1-347): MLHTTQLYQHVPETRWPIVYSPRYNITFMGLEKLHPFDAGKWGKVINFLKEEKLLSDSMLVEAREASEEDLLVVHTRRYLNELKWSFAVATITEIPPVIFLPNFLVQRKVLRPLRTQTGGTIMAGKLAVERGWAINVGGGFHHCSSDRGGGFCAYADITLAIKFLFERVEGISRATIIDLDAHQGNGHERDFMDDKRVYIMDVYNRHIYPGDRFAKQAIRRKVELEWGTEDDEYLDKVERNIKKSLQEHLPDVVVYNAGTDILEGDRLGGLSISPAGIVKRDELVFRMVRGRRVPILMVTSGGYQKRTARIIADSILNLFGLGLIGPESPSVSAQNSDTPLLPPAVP
The experiment is described as above.

On to `CC(/C=C/C(=O)NO)=C\[C@@H](C)C(=O)c1ccc(N(C)C)cc1` [Trichostatin A], for which the HILLSLOPE on HDAC-1 is on record as −0.79; at HDAC8, −0.64; at HDAC-4, −0.24; at HDAC-10, −0.84; at HDAC-11, −0.59; at HDAC-2, −0.93.
